Reference: US20090069324A1, “CHEMICAL INHIBITORS OF BFL-1 AND RELATED METHODS” (The Burnham Institute, priority 2007, published 2009)

Amino acid sequences for entries named in this document (tags omitted). Residues count along the entry.
UniProt Q16548, 1-155 limits assumed: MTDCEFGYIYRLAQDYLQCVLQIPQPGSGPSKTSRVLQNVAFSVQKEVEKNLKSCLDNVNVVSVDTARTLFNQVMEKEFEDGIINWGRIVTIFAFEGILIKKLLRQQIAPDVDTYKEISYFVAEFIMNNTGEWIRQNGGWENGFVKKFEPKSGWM

Assays:
[1] = target: T1, Bfl-1 (Homo sapiens, UniProt Q16548); experiment: Bfl-1 fluorescence polarization assay (FPA/FP), competition with FITC-Bid BH3 peptide; assay type: binding; conditions: read-out: Bfl-1 FPA IC50; Tables 7-8; Avg where the cell lists several determinations
[2] = target: T1, Bfl-1; experiment: Bfl-1 TR-FRET assay (FITC-Bid, Tb-anti-GST antibody); assay type: binding; conditions: read-out: Bfl-1 TR-FRET IC50; Tables 7-8; Avg where the cell lists several determinations

Compound | IC50 [1] [µM] | IC50 [2] [µM]
O=C1C(Cl)=C(N2CCOCC2)C(=O)N1c1ccccc1Cl | > 10 | 5.8
O=C1C(Cl)=C(N2CCOCC2)C(=O)N1c1cccc(Cl)c1 | 8.5 | 6.4
